Measured values: PMC8699473, “An Easily Expandable Multi-Drug LC-MS Assay for the Simultaneous Quantification of 57 Oral Antitumor Drugs in Human Plasma” (Cancers, 2021)

Columns and labels:
[1] = Autosampler stability of ready for injection samples; type: physicochemical, human
[2] = Short-term stability in spiked pooled human plasma (bench-top, 4 °C, 56 °C)
[3] = Long-term stability in spiked pooled human plasma; conditions: validation standard 2xLLOV

In the case of `COc1cc2nccc(Oc3ccc(NC(=O)C4(C(=O)Nc5ccc(F)cc5)CC4)cc3)c2cc1OC` [Cabozantinib], the “Autosampler (24h, 4°C) Accuracy [%]” value ([1]; validation standard 2xLLOV) is reported as 100.8%, the “Autosampler (72h, 4°C) Accuracy [%]” value ([1]; validation standard ULOV) is reported as 101.3% and the “Short-time stability (24h, RT, without daylight) Accuracy [%]” value ([2]; validation standard LLOV) is reported as 90.7%. The “Short-time stability (24h, RT, without daylight) Accuracy [%]” value ([2]; validation standard MOV) was 108.0%, the “Short-time stability (24h, RT, with daylight) Accuracy [%]” value ([2]; validation standard ULOV) was 100.6% and the “Short-time stability (24h, RT, without daylight) Accuracy [%]” value ([2]; validation standard ULOV) was 99.9%. For the same compound, the “Long-term stability, 2 month, -20°C Accuracy [%]” value [3] was 100.6%.
